Measured values as given in ChEMBL document CHEMBL4303097, “In vitro screening of a FDA approved chemical library reveals potential inhibitors of SARS-CoV-2 replication” (2020).
The list shows a part of the results, in another mix than the full data.

The molecules below were run on SARS-CoV-2 (assay: Inhibition of cell viability relative to arbidol control (inhibition index > 1 indicates higher activity) measured by fluorescence (OD590nm) in Vero E6 cells infected with SARS-CoV-2 (strain BavPat1) at MOI 0.002 after 72hrs).
Assay type: functional, Chlorocebus sabaeus, Vero C1008

Row | Structure (SMILES) | Inhibition index
1 | COc1ccc(C[C@H](C)NC[C@@H](O)c2ccc(O)c(NC=O)c2)cc1.COc1ccc(C[C@H](C)NC[C@@H](O)c2ccc(O)c(NC=O)c2)cc1.O=C(O)/C=C/C(=O)O | 1.445
